Laboratory results taken from patent US11691963B2, “6-heteroaryloxy benzimidazoles and azabenzimidazoles as JAK2 inhibitors” (Ajax Therapeutics, Inc., priority 2020, dated 2023).

Amino acid sequences for entries named in this document (tags omitted). Residues count along the entry.
UniProt O60674, 849-1124 Y1007F/Y1008F: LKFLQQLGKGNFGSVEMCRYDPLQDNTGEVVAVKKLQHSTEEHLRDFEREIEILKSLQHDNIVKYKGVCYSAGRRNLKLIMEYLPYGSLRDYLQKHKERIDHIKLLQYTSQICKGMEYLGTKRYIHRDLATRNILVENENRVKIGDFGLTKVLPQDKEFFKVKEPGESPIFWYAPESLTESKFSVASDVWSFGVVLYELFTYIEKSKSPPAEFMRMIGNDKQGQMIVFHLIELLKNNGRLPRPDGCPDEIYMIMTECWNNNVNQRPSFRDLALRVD

Target: JAK2 (JH1domain-catalytic, Y1007F,Y1008F) kinase (Homo sapiens (Human), UniProt O60674, Y1007F/Y1008F)
Conditions: read-out: JAK2 Kd

| SMILES | Kd [µM] |
| --- | --- |
| CC(=O)Nc1cc(Oc2ccc3nc(Nc4cc(C5CC5)cn(C[C@H]5CCC[C@@H]5O)c4=O)n(C)c3c2)ccn1 (single isomer, unassigned) [Example I-75-b] | < 0.01 |

Same assay, conditions: read-out: JAK2 Kd; JAK2 JH1 domain-catalytic, Y1007F,Y1008F; qPCR readout

| SMILES | Kd [µM] |
| --- | --- |
| CC(=O)Nc1cc(Oc2ccc3nc(Nc4cc([C@H]5CC(=O)N(C)C5)cc(C(F)(F)F)c4)n(C)c3c2)ccn1 (mixture of isomers) [Example I-12-a, (R)—N-(4-((1-methyl-2-((3-(1-methyl-5-oxopyrrolidin-3-yl)-5-(trifluoromethyl)phenyl)amino)-1H-benzo[d]imidazol-6-yl)oxy)pyridin-2-yl)acetamide and (S)—N-(4-((1-methyl-2-((3-(1-methyl-5-oxopyrrolidin-3-yl)-5-(trifluoromethyl)phenyl)amino)-1H-benzo[d]imidazol-6-yl)oxy)pyridin-2-yl)acetamide] | 0.01 to 0.05 |
| CC(=O)Nc1cc(Oc2ccc3nc(Nc4cc([C@@H]5CC(=O)N(C)C5)cc(C(F)(F)F)c4)n(C)c3c2)ccn1 (mixture of isomers) [Example I-12-b, (R)—N-(4-((1-methyl-2-((3-(1-methyl-5-oxopyrrolidin-3-yl)-5-(trifluoromethyl)phenyl)amino)-1H-benzo[d]imidazol-6-yl)oxy)pyridin-2-yl)acetamide and (S)—N-(4-((1-methyl-2-((3-(1-methyl-5-oxopyrrolidin-3-yl)-5-(trifluoromethyl)phenyl)amino)-1H-benzo[d]imidazol-6-yl)oxy)pyridin-2-yl)acetamide] | 0.01 to 0.05 |
| CC(=O)Nc1cc(Oc2ccc3nc(Nc4cc(C(F)(F)F)n(C[C@H]5CCCOC5)n4)n(C)c3c2)ccn1 (mixture of isomers) [Example I-36-a, (S)—N-(4-((1-methyl-2-((1-((tetrahydro-2H-pyran-3-yl)methyl)-5-(trifluoromethyl)-1H-pyrazol-3-yl)amino)-1H-benzo[d]imidazol-6-yl)oxy)pyridin-2-yl)acetamide and (R)—N-(4-((1-methyl-2-((1-((tetrahydro-2H-pyran-3-yl)methyl)-5-(trifluoromethyl)-1H-pyrazol-3-yl)amino)-1H-benzo[d]imidazol-6-yl)oxy)pyridin-2-yl)acetamide] | 0.05 to 1 |
| CC(=O)Nc1cc(Oc2ccc3nc(Nc4cc(C(F)(F)F)n(C[C@@H]5CCCOC5)n4)n(C)c3c2)ccn1 (mixture of isomers) [Example I-36-b, (S)—N-(4-((1-methyl-2-((1-((tetrahydro-2H-pyran-3-yl)methyl)-5-(trifluoromethyl)-1H-pyrazol-3-yl)amino)-1H-benzo[d]imidazol-6-yl)oxy)pyridin-2-yl)acetamide and (R)—N-(4-((1-methyl-2-((1-((tetrahydro-2H-pyran-3-yl)methyl)-5-(trifluoromethyl)-1H-pyrazol-3-yl)amino)-1H-benzo[d]imidazol-6-yl)oxy)pyridin-2-yl)acetamide] | 0.05 to 1 |
| CC(=O)Nc1cc(Oc2ccc3nc(N[C@@H]4CCc5nc(C)c(C(F)(F)F)n5C4)n(C)c3c2)ccn1 (single isomer, unassigned) [Example I-45-a] | > 5 |
| CC(=O)Nc1cc(Oc2ccc3nc(N[C@H]4CCc5nc(C)c(C(F)(F)F)n5C4)n(C)c3c2)ccn1 (single isomer, unassigned) [Example I-45-b] | > 5 |
| CC(=O)Nc1cc(Oc2ccc3nc(Nc4cc(C(F)(F)F)cn(C[C@@H]5COCCO5)c4=O)n(C)c3c2)ccn1 (single isomer, unassigned) [Example I-58-a] | 0.01 to 0.05 |
| CO[C@H]1CC[C@H]1Cn1cc(C2CC2)cc(Nc2nc3ccc(Oc4ccnc(NC(C)=O)c4)cc3n2C)c1=O (single isomer, unassigned) [Example I-76-b] | 0.01 to 0.05 |
| CC(=O)Nc1cc(Oc2cnc3nc(Nc4cc(C(C)(C)C)n(C[C@H]5COCCO5)n4)n(C)c3c2C)ccn1 (single isomer, unassigned) [Example I-129-a] | 0.01 to 0.05 |
| Cn1c(Nc2cc(C(C)(C)C)n(C[C@@H]3COCCO3)n2)nc2ncc(Oc3ccnc(NC(=O)C4CC4)c3)cc21 (single isomer, unassigned) [Example I-135-b] | 0.01 to 0.05 |
| CC(=O)Nc1cc(Oc2cnc3nc(Nc4cc(C(C)(C)C)n([C@H]5CCOC56CC6)n4)n(C)c3c2)ccn1 (single isomer, unassigned) [Example I-189-b] | < 0.01 |
| COc1c(Oc2ccnc(NC(C)=O)c2)cnc2nc(Nc3cc(C(C)(C)C)n([C@@H]4CCOC45CC5)n3)n(C)c12 (single isomer, unassigned) [Example I-190-a] | < 0.01 |
| COc1c(Oc2ccnc(NC(C)=O)c2)cnc2nc(Nc3cc(C(C)(C)C)n([C@H]4CCOC45CC5)n3)n(C)c12 (single isomer, unassigned) [Example I-190-b] | < 0.01 |
| Cn1c(Nc2cn(C3CCC3)c([C@H]3CCOC3)n2)nc2ncc(Oc3ccnc(NC(=O)C4CC4)c3)cc21 (single isomer, unassigned) [Example I-198-a] | < 0.01 |
| Cn1c(Nc2cn(C3CCC3)c([C@@H]3CCOC3)n2)nc2ncc(Oc3ccnc(NC(=O)C4CC4)c3)cc21 (single isomer, unassigned) [Example I-198-b] | < 0.01 |
| CC(=O)Nc1cc(Oc2ccc3nc(Nc4cc(C(C)(C)C)on4)n(C)c3c2)ccn1 [Example I-1, N-(4-((2-((5-(tert-butyl)isoxazol-3-yl)amino)-1-methyl-1H-benzo[d]imidazol-6-yl)oxy)pyridin-2-yl)acetamide] | < 0.01 |
| CC(=O)Nc1cc(Oc2ccc3nc(Nc4cc(C(C)(C)C)on4)n(C)c3c2C)ccn1 [Example I-2, N-(4-((2-((5-(tert-butyl)isoxazol-3-yl)amino)-1,7-dimethyl-1H-benzo[d]imidazol-6-yl)oxy)pyridin-2-yl)acetamide] | < 0.01 |
| CC(=O)Nc1cc(Oc2ccc3nc(Nc4cc(C(C)(C)C)on4)n(C)c3c2C#N)ccn1 [Example I-3, N-(4-((2-((5-(tert-butyl)isoxazol-3-yl)amino)-7-cyano-1-methyl-1H-benzo[d]imidazol-6-yl)oxy)pyridin-2-yl)acetamide] | < 0.01 |
| CC(=O)Nc1cc(Oc2ccc3nc(Nc4ccc(F)cc4F)n(C)c3c2C)ccn1 [Example I-6, N-(4-((2-((2,4-difluorophenyl)amino)-1,7-dimethyl-1H-benzo[d]imidazol-6-yl)oxy)pyridin-2-yl)acetamide] | < 0.01 |
| CC(=O)Nc1cc(Oc2ccc3nc(Nc4ccc(Cc5cncn5C)c(C(F)(F)F)c4)n(C)c3c2)ccn1 [Example I-9] | 1 to 5 |
| CC(=O)Nc1cc(Oc2ccc3nc(Nc4cccc(N5CCOCC5)n4)n(C)c3c2)ccn1 [Example I-13, N-(4-((1-methyl-2-((6-morpholinopyridin-2-yl)amino)-1H-benzo[d]imidazol-6-yl)oxy)pyridin-2-yl)acetamide] | > 5 |
| CCN1CCN(Cc2ccc(Nc3nc4ccc(Oc5ccnc(NC(=O)C6CC6)c5)cc4n3C)cc2C(F)(F)F)CC1 [Example I-14, N-(4-((2-((4-((4-ethylpiperazin-1-yl)methyl)-3-(trifluoromethyl)phenyl)amino)-1-methyl-1H-benzo[d]imidazol-6-yl)oxy)pyridin-2-yl)cyclopropanecarboxamide] | < 0.01 |
| CC(=O)Nc1cc(Oc2ccc3nc(Nc4cc(C(C)(C)C)n([C@H]5CCOC5)n4)n(C)c3c2)ccn1 [Example I-20, (S)—N-(4-((2-((5-(tert-butyl)-1-(tetrahydrofuran-3-yl)-1H-pyrazol-3-yl)amino)-1-methyl-1H-benzo[d]imidazol-6-yl)oxy)pyridin-2-yl)acetamide] | < 0.01 |

The next lines start with the values.

| Kd [µM] | SMILES |
| --- | --- |
| < 0.01 | CC(=O)Nc1cc(Oc2ccc3nc(Nc4cc(C5CC5)cn(C[C@H]5CCOC5)c4=O)n(C)c3c2)ccn1 (single isomer, unassigned) [Example I-66-a] |
| < 0.01 | CC(=O)Nc1cc(Oc2ccc3nc(Nc4cc(C5CC5)cn(C[C@@H]5CCOC5)c4=O)n(C)c3c2)ccn1 (single isomer, unassigned) [Example I-66-b] |
| < 0.01 | CC(=O)Nc1cc(Oc2ccc3nc(Nc4cc(C5CC5)cn(C[C@@H]5CCC[C@H]5O)c4=O)n(C)c3c2)ccn1 (single isomer, unassigned) [Example I-75-a] |
| < 0.01 | CC(=O)Nc1cc(Oc2cnc3nc(Nc4cc(C(C)(C)C)n(C[C@@H]5CCOC5)n4)n(C)c3c2)ccn1 (single isomer, unassigned) [Example I-112-a] |
| < 0.01 | CC(=O)Nc1cc(Oc2cnc3nc(Nc4cc(C(C)(C)C)n(C[C@H]5CCOC5)n4)n(C)c3c2)ccn1 (single isomer, unassigned) [Example I-112-b] |
| < 0.01 | CC(=O)Nc1cc(Oc2cnc3nc(Nc4cc(C(C)(C)C)n(C[C@H]5CCOC5)n4)n(C)c3c2C)ccn1 (single isomer, unassigned) [Example I-117-a] |
| < 0.01 | CC(=O)Nc1cc(Oc2cnc3nc(Nc4cc(C(C)(C)C)n(C[C@@H]5CCOC5)n4)n(C)c3c2C)ccn1 (single isomer, unassigned) [Example I-117-b] |
| < 0.01 | CC(=O)Nc1cc(Oc2cnc3nc(Nc4cc(C(C)(C)C)n([C@H]5CCC[C@H]5O)n4)n(C)c3c2)ccn1 (single isomer, unassigned) [Example I-162-a] |
| < 0.01 | COc1c(Oc2ccnc(NC(C)=O)c2)cnc2nc(Nc3cc(C(C)(C)C)n([C@@H]4CN(C)CC4(F)F)n3)n(C)c12 (single isomer, unassigned) [Example I-172-a] |
| < 0.01 | CC(=O)Nc1cc(Oc2cnc3nc(Nc4cc(C(C)(C)C)n([C@@H]5CCOC5(C)C)n4)n(C)c3c2)ccn1 (single isomer, unassigned) [Example I-175-a] |
| < 0.01 | CC(=O)Nc1cc(Oc2cnc3nc(Nc4nc([C@@H]5CCOC5)c(C(C)(C)C)s4)n(C)c3c2)ccn1 (single isomer, unassigned) [Example I-187-a] |
| < 0.01 | CC(=O)Nc1cc(Oc2cnc3nc(Nc4nc([C@H]5CCOC5)c(C(C)(C)C)s4)n(C)c3c2)ccn1 (single isomer, unassigned) [Example I-187-b] |
| < 0.01 | CC(=O)Nc1cc(Oc2cnc3nc(Nc4cc(C(C)(C)C)n([C@@H]5CCOC56CC6)n4)n(C)c3c2)ccn1 (single isomer, unassigned) [Example I-189-a] |
